Data from patent US6406866B1 (priority 1993, dated 2002).

Protein sequences, listed by entry. Tags and fused reporters are not part of them. Lines headed by an entry give the natural chain unless they say otherwise; changes in a name come on top.
UniProt P35370: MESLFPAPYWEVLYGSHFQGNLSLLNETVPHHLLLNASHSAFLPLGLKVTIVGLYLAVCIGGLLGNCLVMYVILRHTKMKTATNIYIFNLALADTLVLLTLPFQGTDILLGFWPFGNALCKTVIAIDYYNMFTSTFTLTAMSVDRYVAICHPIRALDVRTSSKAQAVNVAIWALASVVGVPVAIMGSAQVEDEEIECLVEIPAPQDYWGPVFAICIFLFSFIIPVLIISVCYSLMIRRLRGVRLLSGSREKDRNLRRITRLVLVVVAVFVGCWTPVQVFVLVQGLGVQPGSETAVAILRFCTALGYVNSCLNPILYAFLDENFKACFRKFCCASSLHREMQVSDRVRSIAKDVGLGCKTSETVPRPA

Target: novel mammalian opioid receptor (MSOR, LC132) (Rattus norvegicus, UniProt P35370)
Details: membranes from transient (COS-7) and stable (Ltk-) transfectants, 120 min at 22° C.

## CO[C@]12CC[C@@]3(C[C@@H]1C(C)(C)O)[C@H]1Cc4ccc(O)c5c4[C@@]3(CCN1CC1CC1)[C@H]2O5
  specific binding of the radioactively-labeled opioid agonist or antagonist: no specific binding
